Results reported in ChEMBL document CHEMBL1255309, “Relationship between antimalarial activity and heme alkylation for spiro- and dispiro-1,2,4-trioxolane antimalarials” (Antimicrob Agents Chemother, 2008).

Experiment: Induction of heme alkylation of Fe(II) heme assessed as adduct A472 absorbance change at completion of reaction at 10 uM in presence of 50% ACN-H2O with excess sodium dithionite under argon at 20 degC by spectrophotometry
Procedure, shortened: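 Reduced heme made from hemin (10 μM final) in 50% ACN-water (from 0.5 mM stock in 0.1 M NaOH) with excess sodium dithionite, argon-purged sealed cell, stirred at 20°C; peroxide added to 10 μM final. Product formation followed as A472, normalized to initial 418 nm heme absorbance; taken at completion (t = 30 s). n = 3.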

Compound: CO[C@H]1O[C@@H]2O[C@@]3(C)CC[C@H]4[C@H](C)CC[C@@H]([C@H]1C)[C@@]24OO3
- deltaA: 0.18
